In US20150238460A1, “Methods and Compositions For Treating Hepatocellular Carcinoma” (priority 2012, published 2015):

Tested on: advanced, unresectable HCC (various cancers in whole group)
Assay: Phase I trial G-202-001, expansion group with modified dosing regimen
Conditions: modified regimen: Day 1 40 mg/m^2, Days 2 and 3 […]^2; 15 patients
Description: Virtually all anti-cancer agents have the potential to cause infusion reactions, which are reactions that may be allergic or non-allergic in nature and not related to the known toxicity profile of the agent. Infusion reactions are usually thought of as hypersensitivity reactions, despite the absence of an allergic component in many cases.
Endpoints evaluated in the expansion group included safety, tumor response rate, progression-free survival, and overall survival. Additional secondary endpoints included exploration of pharmacodynamic markers associated with various cancers. Assessments were routinely performed during therapy and following therapy if toxicity was the reason therapy was discontinued.
The only FDA-approved therapy for patients with unresectable HCC is sorafenib tosylate, otherwise known as Nexavar® and/or by the chemical name: 4-(4-{3-[4-Chloro-3-(trifluoromethyl)phenyl]ureido}phenoxy)N2methylpyridine-2-carboxamide 4-methylbenzenesulfonate.

8-O-(12-aminododecanoyl)-debutanoyl-thapsigargin aspartate-glutamate-γ-glutamate-γ-glutamate-γ-glutamate OH [G-202]
occurrence of infusion-related reactions: decreased
